Literature values, collected in publication PMC3642142.

Assays:
[1] = target: L-selectin LSEL15 peptide 311-325 (Homo sapiens) (UniProt P14151); conditions: cited from earlier work
[2] = target: L-selectin CLS transmembrane and cytoplasmic domains (Homo sapiens) (UniProt P14151); conditions: cited from earlier work

## Calmodulin (from UniProt P0DP23)
[1]
  Kd: 43 nM
[2]
  Kd: 2000 nM
